Laboratory results as given in patent publication US8383666B2, “Pyrrole derivatives, preparation of same and therapeutic application thereof” (Sanofi, priority 2008, dated 2013).

The chains behind the UniProt entries cited, without tags or fusion partners.
UniProt P47746, whole entry: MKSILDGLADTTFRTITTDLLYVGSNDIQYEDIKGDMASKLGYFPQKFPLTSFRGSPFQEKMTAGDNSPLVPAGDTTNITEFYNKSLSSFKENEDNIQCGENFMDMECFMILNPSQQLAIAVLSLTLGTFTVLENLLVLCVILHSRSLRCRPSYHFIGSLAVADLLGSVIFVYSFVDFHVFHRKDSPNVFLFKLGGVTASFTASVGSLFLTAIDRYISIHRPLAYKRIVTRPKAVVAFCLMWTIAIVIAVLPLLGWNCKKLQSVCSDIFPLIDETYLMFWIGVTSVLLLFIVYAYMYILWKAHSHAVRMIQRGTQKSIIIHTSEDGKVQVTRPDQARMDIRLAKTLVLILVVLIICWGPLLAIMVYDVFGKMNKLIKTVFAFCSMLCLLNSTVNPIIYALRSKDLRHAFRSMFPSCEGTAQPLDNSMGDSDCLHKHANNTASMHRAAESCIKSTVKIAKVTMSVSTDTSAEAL

Columns and labels:
[1] = biological target: T1, CB1 receptors present at the periphery (Mus musculus, UniProt P47746); test: blocking of the inhibitory effect of CP55940 on gastrointestinal transit; format: in vivo; details: per os at 10 mg/kg, mice
T1 construct: from tissue; host or cells: living mouse, peripheral (gastrointestinal) CB1 receptors

[2] = biological target: T2, CB1 receptors present in the brain (Mus musculus, UniProt P47746); test: Measurement (3): blocking of the hypothermic effect induced by CP55940; format: in vivo; set-up: [CB1 receptors present; from tissue; host or cells: living animal, brain CB1 receptors; details: iv at 10 mg/kg
Description: (§1) Preferably, this percentage is less than 40%, and more preferably less than 30%.

[3] = biological target: T2, CB1 receptors present in the brain; test: Measurement (2): ex vivo binding of [3H]-CP55940 in the brain after intravenous administration; set-up: the CB1 receptors present in the brain in mice; from tissue; host or cells: mouse brain (after intravenous dosing); details: iv at 10 mg/kg, mice
Description: as §1

Cc1c(C(=O)NN2CCCCC2)nn(-c2ccc(Cl)cc2Cl)c1-c1ccc(Cl)cc1 [rimonabant, reference compound]
100%: % reversion of the effect of CP55940 on GI transit [1] | % reversion of the hypothermic effect of CP55940 [2] | % inhibition of [3H]-CP55940 binding at the level of the brain [3]
